The values below come from PubChem BioAssay AID1259398 (Fisher Drug Discovery Resource Center, 2018).

By UniProt entry, the sequences of proteins in these tests, tags left out.
UniProt Q8N884, whole entry: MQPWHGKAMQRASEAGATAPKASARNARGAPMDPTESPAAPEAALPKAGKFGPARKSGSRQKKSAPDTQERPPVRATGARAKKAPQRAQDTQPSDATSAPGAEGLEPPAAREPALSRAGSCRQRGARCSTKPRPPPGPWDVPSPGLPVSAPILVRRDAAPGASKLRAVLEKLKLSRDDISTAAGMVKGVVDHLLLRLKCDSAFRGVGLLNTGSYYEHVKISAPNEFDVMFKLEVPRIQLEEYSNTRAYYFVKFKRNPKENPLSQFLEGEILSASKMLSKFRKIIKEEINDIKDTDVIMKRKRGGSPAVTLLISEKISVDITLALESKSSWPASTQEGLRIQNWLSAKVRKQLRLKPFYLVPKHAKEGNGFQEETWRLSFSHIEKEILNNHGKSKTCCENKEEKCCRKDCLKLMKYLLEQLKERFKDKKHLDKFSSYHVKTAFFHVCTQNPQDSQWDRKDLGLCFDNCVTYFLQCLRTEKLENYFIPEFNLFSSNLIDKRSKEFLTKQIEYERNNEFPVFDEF

This is a selection; strong and weak results do not stand in their true shares. Some results for these compounds are left out of this collection, so the calls shown say nothing about other tests. Active and inactive are the calls of the source. No stated cut-off is given here; in the data, active means inhibition above about 40%; inactive means the rest.

The target in the assay is Cyclic GMP-AMP synthase (Homo sapiens) (UniProt Q8N884). Nature of the assay: Primary biochemical luminescence assay for human cyclic GMP-AMP synthase inhibitors (AID 1259398).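 Further: 0% = vehicle reaction and 100% = reaction without DNA for no activity.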 The conditions noted are these: recombinant h-cGAS, ATP depletion, Kinase-Glo luminescence; at 12.5 µM; hits give high values. In general terms: Kinase-Glo measures the ATP left after a reaction by luminescence.
In general, inhibition refers to the relative decrease from the control value, in per cent. With `CN(C)C1(CNC(=O)c2cc(Br)c(Br)s2)CCCCC1`, the inhibition was inactive: -3.43%.

Turning to `N#CC(C#N)=Cc1ccc(Br)cc1`, the inhibition is inactive: -6.33%.
